By UniProt entry, the sequences of proteins in these tests, tags left out. Residues count along the entry.
UniProt O75417, 1780-2590: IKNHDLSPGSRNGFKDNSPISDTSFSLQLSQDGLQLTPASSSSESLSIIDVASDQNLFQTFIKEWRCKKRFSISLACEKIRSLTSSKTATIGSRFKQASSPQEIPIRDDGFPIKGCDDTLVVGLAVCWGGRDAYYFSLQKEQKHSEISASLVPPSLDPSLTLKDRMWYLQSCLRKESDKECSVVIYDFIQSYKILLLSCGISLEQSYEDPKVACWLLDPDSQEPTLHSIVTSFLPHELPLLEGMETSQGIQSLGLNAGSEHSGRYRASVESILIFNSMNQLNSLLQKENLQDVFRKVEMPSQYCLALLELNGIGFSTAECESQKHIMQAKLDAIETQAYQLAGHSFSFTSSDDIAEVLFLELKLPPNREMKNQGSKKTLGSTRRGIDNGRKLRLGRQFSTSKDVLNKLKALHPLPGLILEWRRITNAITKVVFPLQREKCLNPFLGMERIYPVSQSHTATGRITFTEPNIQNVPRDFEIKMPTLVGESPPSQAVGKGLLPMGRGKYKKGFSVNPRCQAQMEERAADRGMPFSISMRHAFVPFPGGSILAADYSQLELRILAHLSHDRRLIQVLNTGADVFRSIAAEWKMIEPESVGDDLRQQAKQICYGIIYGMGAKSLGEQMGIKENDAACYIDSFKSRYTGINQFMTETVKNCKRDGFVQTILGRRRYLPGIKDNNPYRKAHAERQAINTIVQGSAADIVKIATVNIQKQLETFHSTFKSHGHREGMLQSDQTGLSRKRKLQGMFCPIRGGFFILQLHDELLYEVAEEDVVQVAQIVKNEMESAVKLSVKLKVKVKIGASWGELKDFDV

In patent US20250195530A1, “POLQ INHIBITORS” (ASTRAZENECA AB, priority 2022, published 2025):

Target: isolated polymerase domain (I1780-V2590) of DNA polymerase theta (Polθ) (Homo sapiens (Human), UniProt O75417)
Assay: biochemical

IC50 [nM] | Compound
6.31 | Cc1ccnc(Cn2c(-c3ccc(OC4COC4)cc3Cl)nc3c(OC4(C)CC4)ncnc32)c1 [Example T103, 8-(2-chloro-4-(oxetan-3-yloxy)phenyl)-6-(1-methylcyclopropoxy)-9-((4-methylpyridin-2-yl)methyl)-9H-purine]
2 | CC(C)Oc1ccc2c(c1)nc(-c1ccc(OCCC3CCCN3C)cc1Cl)n2Cc1ccccc1 (single isomer, unassigned) [Example A8, 1-benzyl-2-(2-chloro-4-(2-(1-methylpyrrolidin-2-yl)ethoxy)phenyl)-5-isopropoxy-1H-benzo[d]imidazole]
15.8 | Cc1ccnc(Cn2c(-c3ccc(C(=O)N4CCNCC4)cc3Cl)nc3c(OC4(C)CC4)ncnc32)c1 [Example T337, (3-chloro-4-(6-(1-methylcyclopropoxy)-9-((4-methylpyridin-2-yl)methyl)-9H-purin-8-yl)phenyl)(piperazin-1-yl)methanone]
3.98 | Cc1ccnc(Cn2c(-c3ccc(CCN4CC[C@@H](O)C4)cc3Cl)nc3c(OC4(C)CC4)ncnc32)c1 [Example T511, (R)-1-(3-chloro-4-(6-(1-methylcyclopropoxy)-9-((4-methylpyridin-2-yl)methyl)-9H-purin-8-yl)phenethyl)pyrrolidin-3-ol]
6.31 | COc1ccc(Cl)cc1Cn1c(-c2cccc(OC[C@H](C)CC(=O)O)c2Cl)nc2c(OC3(C)CC3)ncnc21 (single isomer, unassigned; isomer 2) [Example 51, 4-(2-Chloro-3-(9-(5-chloro-2-methoxybenzyl)-6-(1-methylcyclopropoxy)-9H-purin-8-yl)phenoxy)-3-methylbutanoic acid (isomer 2)]
7.94 | Cc1ccnc(Cn2c(-c3ccc(OCCCN4CCCC4)cc3Cl)nc3c(OC4(C)CC4)ncnc32)c1 [Example T590, 8-(2-chloro-4-(3-(pyrrolidin-1-yl)propoxy)phenyl)-6-(1-methylcyclopropoxy)-9-((4-methylpyridin-2-yl)methyl)-9H-purine]
6.31 | Cc1ccnc(Cn2c(-c3ccc(N4CCN5CCC[C@H]5C4)cc3Cl)nc3c(OC4(C)CC4)ncnc32)c1 [Example T585, (S)-8-(2-chloro-4-(hexahydropyrrolo[1,2-a]pyrazin-2(1H)-yl)phenyl)-6-(1-methylcyclopropoxy)-9-((4-methylpyridin-2-yl)methyl)-9H-purine]
< 2 | CC1(Oc2ncnc3c2nc(-c2c(F)ccc(OCCC(=O)O)c2Cl)n3Cc2cccc(Cl)c2)CC1 [Example U66, 3-(2-chloro-3-(9-(3-chlorobenzyl)-6-(1-methylcyclopropoxy)-9H-purin-8-yl)-4-fluorophenoxy)propanoic acid]
50.1 | Cc1ccnc(Cn2c(-c3ccc(C(=O)N4CCNC(=O)C4)cc3Cl)nc3c(OC4(C)CC4)ncnc32)c1 [Example T287, 4-(3-chloro-4-(6-(1-methylcyclopropoxy)-9-((4-methylpyridin-2-yl)methyl)-9H-purin-8-yl)benzoyl)piperazin-2-one]
3.16 | C[C@@H](OCCOc1ccc(-c2nc3c(OC4(C)CC4)ncnc3n2Cc2cccc(Cl)c2)c(Cl)c1)C(=O)O [Example T306, (R)-2-(2-(3-chloro-4-(9-(3-chlorobenzyl)-6-(1-methylcyclopropoxy)-9H-purin-8-yl)phenoxy)ethoxy)propanoic acid]
6.31 | CC(CCOc1ccc(-c2nc3c(OC4(C)CC4)ncnc3n2Cc2cc(Cl)cc(Cl)c2)c(Cl)c1)C(=O)O (racemic) [Example T275, 4-(3-chloro-4-(9-(3,5-dichlorobenzyl)-6-(1-methylcyclopropoxy)-9H-purin-8-yl)phenoxy)-2-methylbutanoic acid]
20 | Cc1ccnc(Cn2c(-c3ccc(C(=O)NC4(C)COC4)cc3Cl)nc3c(OC4(C)CC4)ncnc32)c1 [Example T317, 3-chloro-4-(6-(1-methylcyclopropoxy)-9-((4-methylpyridin-2-yl)methyl)-9H-purin-8-yl)-N-(3-methyloxetan-3-yl)benzamide]
7.94 | Cc1ccnc(Cn2c(-c3ccc(OCC(=O)NC4CC(F)C4)cc3Cl)nc3c(OC4(C)CC4)ncnc32)c1 (stereo not shown) [Example T421, 2-(3-chloro-4-(6-(1-methylcyclopropoxy)-9-((4-methylpyridin-2-yl)methyl)-9H-purin-8-yl)phenoxy)-N-(3-fluorocyclobutyl)acetamide]
6.31 | Cc1ccnc(Cn2c(-c3ccc(N4CC[C@@H](O)C4=O)cc3Cl)nc3c(OC4(C)CC4)ncnc32)c1 [Example T181, (R)-1-(3-chloro-4-(6-(1-methylcyclopropoxy)-9-((4-methylpyridin-2-yl)methyl)-9H-purin-8-yl)phenyl)-3-hydroxypyrrolidin-2-one]
12.6 | Cc1nc(Cn2c(-c3ccc(CC(N)=O)cc3Cl)nc3c(OC4(C)CC4)ncnc32)sc1C [Example T24, 2-(3-chloro-4-(9-((4,5-dimethylthiazol-2-yl)methyl)-6-(1-methylcyclopropoxy)-9H-purin-8-yl)phenyl)acetamide]
2.51 | CNC(=O)c1ccc(-c2nc3c(OC4(C)CC4)ncnc3n2Cc2cc(C)ccn2)c(Cl)c1 [Example T52, 3-chloro-N-methyl-4-(6-(1-methylcyclopropoxy)-9-((4-methylpyridin-2-yl)methyl)-9H-purin-8-yl)benzamide]
6.31 | Cc1ccnc(Cn2c(-c3ccc(CN(C)C)cc3Cl)nc3c(OC4(C)CC4)ncnc32)c1 [Example T136, 1-(3-chloro-4-(6-(1-methylcyclopropoxy)-9-((4-methylpyridin-2-yl)methyl)-9H-purin-8-yl)phenyl)-N,N-dimethylmethanamine]
794 | Cc1cnn(C)c1Cn1c(-c2ccc(CC(N)=O)cc2Cl)nc2c(OC3(C)CC3)ncnc21 [Example T31, 2-(3-chloro-4-(9-((1,4-dimethyl-1H-pyrazol-5-yl)methyl)-6-(1-methylcyclopropoxy)-9H-purin-8-yl)phenyl)acetamide]
6.31 | CC(CCc1ccc(-c2nc3c(OC4(C)CC4)ncnc3n2Cc2cccc(Cl)c2)c(Cl)c1)C(=O)O (racemic) [Example T290, 4-(3-chloro-4-(9-(3-chlorobenzyl)-6-(1-methylcyclopropoxy)-9H-purin-8-yl)phenyl)-2-methylbutanoic acid]
5.01 | CC1(Oc2ncnc3c2nc(-c2ccc(OCCN4CCNCC4)cc2Br)n3Cc2cc(Cl)ccn2)CC1 [Example T348, 8-(2-bromo-4-(2-(piperazin-1-yl)ethoxy)phenyl)-9-((4-chloropyridin-2-yl)methyl)-6-(1-methylcyclopropoxy)-9H-purine]
3.98 | Cc1cnc(Cn2c(-c3ccc(OCCN4CCNCC4)cc3Cl)nc3c(OC4(C)CC4)ncnc32)cc1Cl [Example T526, 8-(2-chloro-4-(2-(piperazin-1-yl)ethoxy)phenyl)-9-((4-chloro-5-methylpyridin-2-yl)methyl)-6-(1-methylcyclopropoxy)-9H-purine]
6.31 | CC1(Oc2ncnc3c2nc(-c2ccc(OCCCO)cc2Cl)n3Cc2cc(Cl)ccn2)CC1 [Example T64, 3-(3-chloro-4-(9-((4-chloropyridin-2-yl)methyl)-6-(1-methylcyclopropoxy)-9H-purin-8-yl)phenoxy)propan-1-ol]
5.01 | Cc1ccnc(Cn2c(-c3ccc(NC(=O)NCCO)cc3Cl)nc3c(OC4(C)CC4)ncnc32)c1 [Example T132, 1-(3-chloro-4-(6-(1-methylcyclopropoxy)-9-((4-methylpyridin-2-yl)methyl)-9H-purin-8-yl)phenyl)-3-(2-hydroxyethyl)urea]
10 | Cc1ccnc(Cn2c(-c3ccc(OCC(=O)N4CC[C@@H](C#N)C4)cc3Cl)nc3c(OC4(C)CC4)ncnc32)c1 [Example T538, (R)-1-(2-(3-chloro-4-(6-(1-methylcyclopropoxy)-9-((4-methylpyridin-2-yl)methyl)-9H-purin-8-yl)phenoxy)acetyl)pyrrolidine-3-carbonitrile]
6.31 | Cc1ccnc(Cn2c(-c3ccc(CC(=O)N4CCC4)cc3Cl)nc3c(OC4(C)CC4)ncnc32)c1 [Example T308, 1-(azetidin-1-yl)-2-(3-chloro-4-(6-(1-methylcyclopropoxy)-9-((4-methylpyridin-2-yl)methyl)-9H-purin-8-yl)phenyl)ethan-1-one]
5.01 | Cc1ccnc(Cn2c(-c3ccc(OC4CCCNCC4)cc3Cl)nc3c(OC4(C)CC4)ncnc32)c1 (single isomer, unassigned) [Example T510, 8-(4-(azepan-4-yloxy)-2-chlorophenyl)-6-(1-methylcyclopropoxy)-9-((4-methylpyridin-2-yl)methyl)-9H-purine]
20 | COc1ncc(Cl)cc1Cn1c(-c2ccc(OCCC(C)C(=O)O)cc2Cl)nc2c(OC3(C)CC3)ncnc21 (racemic) [Example U53, 4-(3-chloro-4-(9-((5-chloro-2-methoxypyridin-3-yl)methyl)-6-(1-methylcyclopropoxy)-9H-purin-8-yl)phenoxy)-2-methylbutanoic acid]
7.94 | Cc1ccnc(Cn2c(-c3ccc(OCC(=O)NCC(F)F)cc3Cl)nc3c(OC4(C)CC4)ncnc32)c1 [Example T166, 2-(3-chloro-4-(6-(1-methylcyclopropoxy)-9-((4-methylpyridin-2-yl)methyl)-9H-purin-8-yl)phenoxy)-N-(2,2-difluoroethyl)acetamide]
3.98 | CC(C)C(CCOc1ccc(-c2nc3c(OC4(C)CC4)ncnc3n2Cc2cccc(Cl)c2)c(Cl)c1)C(=O)O (racemic) [Example T566, 4-(3-chloro-4-(9-(3-chlorobenzyl)-6-(1-methylcyclopropoxy)-9H-purin-8-yl)phenoxy)-2-isopropylbutanoic acid]

Compound | IC50 [nM]
Cc1ccnc(Cn2c(-c3ccc(CC(=O)N4C5CNCC4C5)cc3Cl)nc3c(OC4(C)CC4)ncnc32)c1 [Example T557, 1-(3,6-diazabicyclo[3.1.1]heptan-6-yl)-2-(3-chloro-4-(6-(1-methylcyclopropoxy)-9-((4-methylpyridin-2-yl)methyl)-9H-purin-8-yl)phenyl)ethan-1-one] | 3.16
CC1(Oc2ncnc3c2nc(-c2cccc(OCCCCOCC(=O)O)c2Cl)n3Cc2cccc(Cl)c2)CC1 [Example T448, 2-(4-(2-chloro-3-(9-(3-chlorobenzyl)-6-(1-methylcyclopropoxy)-9H-purin-8-yl)phenoxy)butoxy)acetic acid] | 7.94
